This assay has as its target SERT (Homo sapiens, UniProt P31645). The assay is described as follows: biochemical. The class given is binding. Particulars: read-out: inhibition SERT.

Sequences of proteins named here, by UniProt entry; tags and fusion partners are left off.
UniProt P31645, whole entry, species assumed: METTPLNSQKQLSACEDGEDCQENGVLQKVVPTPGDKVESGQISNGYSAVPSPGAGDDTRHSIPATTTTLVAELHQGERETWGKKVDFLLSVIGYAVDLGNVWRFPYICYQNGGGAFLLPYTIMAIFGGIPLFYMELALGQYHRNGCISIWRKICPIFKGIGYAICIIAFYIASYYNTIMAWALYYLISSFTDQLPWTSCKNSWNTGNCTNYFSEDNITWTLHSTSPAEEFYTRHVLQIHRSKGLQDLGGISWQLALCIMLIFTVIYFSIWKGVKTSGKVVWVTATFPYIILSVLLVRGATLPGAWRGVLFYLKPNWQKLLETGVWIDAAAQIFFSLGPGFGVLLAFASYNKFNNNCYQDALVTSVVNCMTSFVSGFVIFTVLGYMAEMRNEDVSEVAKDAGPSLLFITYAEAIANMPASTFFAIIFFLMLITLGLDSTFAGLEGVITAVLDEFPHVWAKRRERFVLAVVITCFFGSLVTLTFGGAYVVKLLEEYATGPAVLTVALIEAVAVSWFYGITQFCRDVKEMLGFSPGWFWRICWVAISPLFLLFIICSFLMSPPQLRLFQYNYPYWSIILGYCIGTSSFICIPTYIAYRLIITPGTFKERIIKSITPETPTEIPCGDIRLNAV

The structures appear in SMILES notation.

The inhibition is how much of the control response was suppressed. Regarding `O=C1CN2c3c(cccc3[C@@H]3CN(CCCC(=O)c4ccc(F)cc4)CC[C@@H]32)N1` [Example 1, 4-((6bR,10aS)-2-oxo-2,3,6b,9,10,10a-hexahydro-1H,7H-pyrido[3′,4′:4,5]pyrrolo[1,2,3-de]quinoxalin-8-yl)-1-(4-fluoro-phenyl)-butan-1-one], the inhibition at 0.24 µM stood at 44%.

For the origin of these results see US11376249B2 (priority 2017, dated 2022).
